Assay results reported in patent publication US12258389B2, “Methods and compositions for inhibition of EGF/EGFR pathway in combination with tyrosine kinase inhibitors” (In3Bio Ltd., priority 2015, dated 2025).

Test system: p-EGFR
Assay: Western blot, phosphorylated EGFR normalised to total EGFR, PC9 cells
Format: cell-based, human
Settings: PC9, 24 h serum starvation and drug treatment; gefitinib 0.5 μM, Ab 1/2; Control = 100
Procedure: Experiment 1: In a typical standard experiment, five T-75 flasks of the cell line under study were cultured to approximately 70% confluence, washed twice with PBS and grown o/n in serum-free medium. The serum-starved cells were then washed again and treated as follows:
Treatment was for about 15 minutes.
Experiment 2: In a second experiment anti-EGF was tested only at 1 to 2 dilution. […] Treatment was prolonged to about 2 hours in this experiment.
Both EGF and anti-EGF antibodies, which used in this project were derived from an immunization study in monkeys that received 4 immunizations of the rEGF-rP64k conjugate CIMAvax-EGF vaccine formulated with Montanide adjuvant. The vaccine and resulting anti-EGF antibodies were provided by Bioven (Europe) Ltd, Cruikshank Building North, Aberdeen Biotechnology, Craibstone Aberdeen, U.K. Scotland. Antibodies for Western blotting were purchased from Santa Cruz Biotechnologies (Palo Alto, CA).
Experiment 3: In a third experiment anti-EGF was tested only at 1 to 2 dilution. […] Treatment was prolonged to about 2 hours in this experiment. […] Both EGF and anti-EGF were provided by Bioven. Antibodies for Western blotting were purchased from Santa Cruz Biotechnologies (Palo Alto, CA).
Subsequently, three kind of experiments were performed:
C. […]

## COc1cc2ncnc(Nc3ccc(F)c(Cl)c3)c2cc1OCCCN1CCOCC1 [Gefitinib]
  pEGFR: 25.5
